Values of other authors in patent US20240050571A1, “CARBORANE HYDROXAMIC ACID MATRIX METALLOPROTEINASE INHIBITORS AND AGENTS FOR BORON NEUTRON CAPTURE THERAPY” (LOYOLA UNIVERSITY OF CHICAGO, priority 2018, published 2024).

What was measured:
[1] = rats; cited from earlier work
[2] = rabbits; cited from earlier work

Sodium azide
LC50 Inhalation [1]: 37 mg/m^3 | LD50 Dermal [2]: 20 mg/kg
